Article PMC9884089 (Journal of Medicinal Chemistry, 2023)
Where two headings read alike, the source gives them in different places.

Chains of the proteins cited; added tags and fusions are not shown. Lines headed by an entry give the natural chain unless they say otherwise; changes in a name come on top.
UniProt Q9Y6F1: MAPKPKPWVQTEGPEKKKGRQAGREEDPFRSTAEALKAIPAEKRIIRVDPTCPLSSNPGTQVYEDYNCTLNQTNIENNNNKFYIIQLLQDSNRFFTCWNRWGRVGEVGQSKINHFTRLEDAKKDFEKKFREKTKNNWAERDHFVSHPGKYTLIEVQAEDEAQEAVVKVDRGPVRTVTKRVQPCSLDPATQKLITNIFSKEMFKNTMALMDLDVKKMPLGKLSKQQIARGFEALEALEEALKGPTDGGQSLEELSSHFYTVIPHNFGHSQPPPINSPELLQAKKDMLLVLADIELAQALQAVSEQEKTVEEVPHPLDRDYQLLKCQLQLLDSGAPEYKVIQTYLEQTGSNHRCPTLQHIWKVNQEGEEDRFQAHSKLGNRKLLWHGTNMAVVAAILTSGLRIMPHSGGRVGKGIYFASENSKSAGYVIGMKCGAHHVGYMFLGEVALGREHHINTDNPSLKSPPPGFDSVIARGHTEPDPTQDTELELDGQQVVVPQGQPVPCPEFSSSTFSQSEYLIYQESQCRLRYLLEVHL
UniProt Q9UKK3: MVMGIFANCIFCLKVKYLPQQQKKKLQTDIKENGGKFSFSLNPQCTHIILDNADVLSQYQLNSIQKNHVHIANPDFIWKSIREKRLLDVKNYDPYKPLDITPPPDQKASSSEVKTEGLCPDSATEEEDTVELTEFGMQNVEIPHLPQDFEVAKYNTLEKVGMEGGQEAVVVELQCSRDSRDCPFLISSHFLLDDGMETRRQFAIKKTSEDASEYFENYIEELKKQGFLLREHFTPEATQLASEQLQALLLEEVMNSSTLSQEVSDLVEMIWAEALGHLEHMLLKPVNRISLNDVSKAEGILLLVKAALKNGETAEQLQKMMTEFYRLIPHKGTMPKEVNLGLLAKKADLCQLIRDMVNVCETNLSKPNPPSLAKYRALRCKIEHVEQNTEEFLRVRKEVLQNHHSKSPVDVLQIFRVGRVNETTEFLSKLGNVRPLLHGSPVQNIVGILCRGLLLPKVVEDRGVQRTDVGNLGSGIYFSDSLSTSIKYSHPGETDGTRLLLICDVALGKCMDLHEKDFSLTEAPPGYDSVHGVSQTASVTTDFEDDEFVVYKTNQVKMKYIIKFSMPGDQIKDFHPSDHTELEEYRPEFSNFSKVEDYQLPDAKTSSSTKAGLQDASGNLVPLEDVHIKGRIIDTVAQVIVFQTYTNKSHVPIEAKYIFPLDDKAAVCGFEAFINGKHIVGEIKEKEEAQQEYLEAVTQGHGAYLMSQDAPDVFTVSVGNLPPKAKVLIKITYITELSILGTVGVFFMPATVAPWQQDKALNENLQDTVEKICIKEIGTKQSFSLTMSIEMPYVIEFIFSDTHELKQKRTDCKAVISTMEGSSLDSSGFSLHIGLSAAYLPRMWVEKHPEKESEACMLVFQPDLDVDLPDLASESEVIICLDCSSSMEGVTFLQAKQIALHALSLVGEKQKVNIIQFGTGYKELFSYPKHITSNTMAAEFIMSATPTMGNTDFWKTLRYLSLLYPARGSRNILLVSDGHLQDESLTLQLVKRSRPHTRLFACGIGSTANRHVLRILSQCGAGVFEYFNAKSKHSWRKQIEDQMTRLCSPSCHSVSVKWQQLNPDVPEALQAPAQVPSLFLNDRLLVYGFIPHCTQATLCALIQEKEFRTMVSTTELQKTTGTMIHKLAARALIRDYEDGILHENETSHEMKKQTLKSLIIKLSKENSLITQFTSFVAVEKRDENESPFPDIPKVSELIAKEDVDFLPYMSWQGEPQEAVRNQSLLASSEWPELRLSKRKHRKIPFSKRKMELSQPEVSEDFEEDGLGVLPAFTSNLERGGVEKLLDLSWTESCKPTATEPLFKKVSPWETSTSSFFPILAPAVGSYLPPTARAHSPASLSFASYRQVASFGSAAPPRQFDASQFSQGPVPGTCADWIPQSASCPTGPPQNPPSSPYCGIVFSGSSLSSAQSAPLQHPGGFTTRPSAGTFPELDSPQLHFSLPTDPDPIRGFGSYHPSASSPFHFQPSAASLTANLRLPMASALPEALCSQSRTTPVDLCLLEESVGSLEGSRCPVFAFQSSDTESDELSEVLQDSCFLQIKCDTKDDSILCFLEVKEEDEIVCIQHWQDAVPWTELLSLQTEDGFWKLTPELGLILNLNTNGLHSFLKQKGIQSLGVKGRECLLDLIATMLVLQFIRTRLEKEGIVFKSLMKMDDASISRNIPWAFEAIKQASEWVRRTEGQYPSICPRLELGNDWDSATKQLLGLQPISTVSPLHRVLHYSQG
UniProt Q9NR21: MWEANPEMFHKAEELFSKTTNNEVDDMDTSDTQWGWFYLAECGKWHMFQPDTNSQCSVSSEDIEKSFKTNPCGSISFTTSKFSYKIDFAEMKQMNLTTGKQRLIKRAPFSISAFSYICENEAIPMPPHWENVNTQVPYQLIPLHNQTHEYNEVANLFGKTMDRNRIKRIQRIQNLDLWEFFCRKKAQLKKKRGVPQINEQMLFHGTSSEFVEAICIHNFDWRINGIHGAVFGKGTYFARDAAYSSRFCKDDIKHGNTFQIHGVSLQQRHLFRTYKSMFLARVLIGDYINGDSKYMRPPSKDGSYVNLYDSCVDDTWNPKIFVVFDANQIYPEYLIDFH
UniProt Q460N5, whole entry: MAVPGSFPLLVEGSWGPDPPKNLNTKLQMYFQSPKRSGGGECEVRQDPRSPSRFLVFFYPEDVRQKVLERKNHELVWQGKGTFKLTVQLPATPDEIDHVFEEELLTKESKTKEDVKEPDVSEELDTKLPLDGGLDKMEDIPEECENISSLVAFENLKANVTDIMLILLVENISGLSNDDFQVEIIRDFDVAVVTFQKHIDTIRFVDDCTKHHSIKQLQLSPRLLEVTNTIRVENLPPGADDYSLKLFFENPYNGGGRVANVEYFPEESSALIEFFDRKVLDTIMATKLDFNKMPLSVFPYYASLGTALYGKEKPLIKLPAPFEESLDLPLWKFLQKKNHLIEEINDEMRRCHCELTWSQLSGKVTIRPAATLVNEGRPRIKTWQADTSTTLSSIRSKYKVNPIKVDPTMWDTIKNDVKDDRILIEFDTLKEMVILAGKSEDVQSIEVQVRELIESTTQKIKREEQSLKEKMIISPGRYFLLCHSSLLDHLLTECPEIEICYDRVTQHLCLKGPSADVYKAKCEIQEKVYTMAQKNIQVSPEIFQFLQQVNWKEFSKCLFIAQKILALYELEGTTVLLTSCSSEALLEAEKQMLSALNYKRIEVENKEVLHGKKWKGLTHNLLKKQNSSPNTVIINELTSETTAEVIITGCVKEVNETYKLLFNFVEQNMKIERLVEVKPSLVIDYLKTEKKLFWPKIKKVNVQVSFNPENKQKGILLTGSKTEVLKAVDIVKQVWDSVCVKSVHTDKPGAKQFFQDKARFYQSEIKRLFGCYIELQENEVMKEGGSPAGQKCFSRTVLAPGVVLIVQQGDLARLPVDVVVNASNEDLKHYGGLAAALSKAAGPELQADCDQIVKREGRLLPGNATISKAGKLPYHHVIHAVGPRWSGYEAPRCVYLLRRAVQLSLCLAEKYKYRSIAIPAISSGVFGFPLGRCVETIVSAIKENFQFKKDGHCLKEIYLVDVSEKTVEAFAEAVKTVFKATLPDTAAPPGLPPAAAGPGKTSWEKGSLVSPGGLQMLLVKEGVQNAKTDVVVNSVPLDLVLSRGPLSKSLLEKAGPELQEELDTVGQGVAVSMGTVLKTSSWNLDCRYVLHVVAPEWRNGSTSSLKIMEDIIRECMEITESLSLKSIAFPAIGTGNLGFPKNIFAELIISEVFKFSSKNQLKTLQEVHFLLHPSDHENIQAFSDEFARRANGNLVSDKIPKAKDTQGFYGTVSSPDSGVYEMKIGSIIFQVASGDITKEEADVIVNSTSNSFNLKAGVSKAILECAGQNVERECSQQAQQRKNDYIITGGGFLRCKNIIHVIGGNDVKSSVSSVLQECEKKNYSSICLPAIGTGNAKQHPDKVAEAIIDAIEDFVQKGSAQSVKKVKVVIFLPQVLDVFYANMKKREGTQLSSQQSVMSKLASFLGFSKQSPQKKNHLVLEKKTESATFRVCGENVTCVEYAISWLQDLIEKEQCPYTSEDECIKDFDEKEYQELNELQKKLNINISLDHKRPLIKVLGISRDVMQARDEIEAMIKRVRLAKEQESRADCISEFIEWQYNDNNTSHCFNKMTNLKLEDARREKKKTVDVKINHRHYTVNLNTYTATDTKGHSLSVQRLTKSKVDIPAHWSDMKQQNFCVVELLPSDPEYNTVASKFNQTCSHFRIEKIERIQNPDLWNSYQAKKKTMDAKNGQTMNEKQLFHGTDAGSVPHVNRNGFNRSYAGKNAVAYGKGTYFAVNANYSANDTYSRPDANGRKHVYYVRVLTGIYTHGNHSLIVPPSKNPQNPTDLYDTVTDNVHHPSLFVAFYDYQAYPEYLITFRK
UniProt Q7Z3E1: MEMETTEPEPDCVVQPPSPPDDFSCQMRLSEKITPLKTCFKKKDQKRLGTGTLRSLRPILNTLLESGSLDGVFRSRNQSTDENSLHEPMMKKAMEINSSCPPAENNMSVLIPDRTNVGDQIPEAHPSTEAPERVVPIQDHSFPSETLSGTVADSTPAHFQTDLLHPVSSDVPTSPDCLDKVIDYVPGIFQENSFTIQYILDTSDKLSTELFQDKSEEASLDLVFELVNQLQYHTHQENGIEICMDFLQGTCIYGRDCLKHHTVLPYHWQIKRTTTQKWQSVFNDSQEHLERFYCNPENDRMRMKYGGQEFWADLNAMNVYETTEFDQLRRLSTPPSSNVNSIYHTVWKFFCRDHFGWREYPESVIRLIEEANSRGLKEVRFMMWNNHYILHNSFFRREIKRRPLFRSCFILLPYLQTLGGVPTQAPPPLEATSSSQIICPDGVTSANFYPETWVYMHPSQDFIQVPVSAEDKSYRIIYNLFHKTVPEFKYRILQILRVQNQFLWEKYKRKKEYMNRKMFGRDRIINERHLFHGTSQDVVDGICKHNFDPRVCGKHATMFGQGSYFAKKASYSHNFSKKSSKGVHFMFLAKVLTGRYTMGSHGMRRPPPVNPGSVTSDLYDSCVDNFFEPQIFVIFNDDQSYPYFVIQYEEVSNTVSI
UniProt Q9UGN5: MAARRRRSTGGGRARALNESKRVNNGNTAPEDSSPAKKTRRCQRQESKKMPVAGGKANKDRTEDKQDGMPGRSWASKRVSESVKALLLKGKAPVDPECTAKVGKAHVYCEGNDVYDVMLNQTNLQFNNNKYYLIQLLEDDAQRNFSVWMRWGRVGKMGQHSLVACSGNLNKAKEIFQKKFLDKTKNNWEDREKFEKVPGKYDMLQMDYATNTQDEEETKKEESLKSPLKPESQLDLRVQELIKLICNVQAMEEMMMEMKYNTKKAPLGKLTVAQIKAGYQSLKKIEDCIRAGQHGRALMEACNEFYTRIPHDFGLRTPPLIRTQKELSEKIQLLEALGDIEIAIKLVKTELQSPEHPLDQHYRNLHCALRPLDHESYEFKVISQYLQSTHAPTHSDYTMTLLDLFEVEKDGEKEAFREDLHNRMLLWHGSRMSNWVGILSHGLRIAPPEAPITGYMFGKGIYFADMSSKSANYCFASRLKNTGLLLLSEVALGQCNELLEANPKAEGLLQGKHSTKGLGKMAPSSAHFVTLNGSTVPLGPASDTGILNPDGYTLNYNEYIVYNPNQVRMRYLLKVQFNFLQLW

Key:
PARP10 [1] = molecular target: T1, PARP10 (Homo sapiens, UniProt Q53GL7); assay: biochemical; type: biochemical; set-up: made in house
T1 sequence (Q53GL7 1-1025): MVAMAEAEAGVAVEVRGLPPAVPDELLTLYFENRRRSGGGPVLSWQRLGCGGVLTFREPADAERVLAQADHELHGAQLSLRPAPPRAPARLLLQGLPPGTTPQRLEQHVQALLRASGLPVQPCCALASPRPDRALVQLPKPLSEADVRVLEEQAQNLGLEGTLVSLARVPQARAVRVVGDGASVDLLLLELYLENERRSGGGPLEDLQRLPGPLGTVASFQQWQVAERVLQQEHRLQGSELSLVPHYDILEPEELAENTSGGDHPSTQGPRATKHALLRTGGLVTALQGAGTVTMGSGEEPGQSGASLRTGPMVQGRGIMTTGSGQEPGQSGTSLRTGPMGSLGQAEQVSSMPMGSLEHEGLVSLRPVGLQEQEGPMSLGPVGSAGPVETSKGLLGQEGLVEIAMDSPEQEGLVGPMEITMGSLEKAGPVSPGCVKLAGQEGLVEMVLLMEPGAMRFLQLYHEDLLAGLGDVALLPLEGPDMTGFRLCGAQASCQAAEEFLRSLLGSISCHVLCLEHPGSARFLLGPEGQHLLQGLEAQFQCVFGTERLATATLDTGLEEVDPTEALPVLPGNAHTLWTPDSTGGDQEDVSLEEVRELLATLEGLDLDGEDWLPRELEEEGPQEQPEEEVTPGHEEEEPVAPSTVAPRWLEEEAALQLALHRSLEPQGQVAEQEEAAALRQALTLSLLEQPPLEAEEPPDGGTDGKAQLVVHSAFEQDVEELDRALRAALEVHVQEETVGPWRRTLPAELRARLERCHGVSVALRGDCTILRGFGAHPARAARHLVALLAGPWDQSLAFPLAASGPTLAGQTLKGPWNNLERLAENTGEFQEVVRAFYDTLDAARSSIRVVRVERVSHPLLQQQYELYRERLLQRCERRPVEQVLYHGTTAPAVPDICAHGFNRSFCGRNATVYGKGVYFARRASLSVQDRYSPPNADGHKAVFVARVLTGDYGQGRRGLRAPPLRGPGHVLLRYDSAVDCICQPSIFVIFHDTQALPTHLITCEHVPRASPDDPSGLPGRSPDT

PARP15 [2] = molecular target: T2, PARP15 (Homo sapiens, UniProt Q460N3); assay: biochemical; type: biochemical; set-up: made in house
T2 sequence (Q460N3 1-678): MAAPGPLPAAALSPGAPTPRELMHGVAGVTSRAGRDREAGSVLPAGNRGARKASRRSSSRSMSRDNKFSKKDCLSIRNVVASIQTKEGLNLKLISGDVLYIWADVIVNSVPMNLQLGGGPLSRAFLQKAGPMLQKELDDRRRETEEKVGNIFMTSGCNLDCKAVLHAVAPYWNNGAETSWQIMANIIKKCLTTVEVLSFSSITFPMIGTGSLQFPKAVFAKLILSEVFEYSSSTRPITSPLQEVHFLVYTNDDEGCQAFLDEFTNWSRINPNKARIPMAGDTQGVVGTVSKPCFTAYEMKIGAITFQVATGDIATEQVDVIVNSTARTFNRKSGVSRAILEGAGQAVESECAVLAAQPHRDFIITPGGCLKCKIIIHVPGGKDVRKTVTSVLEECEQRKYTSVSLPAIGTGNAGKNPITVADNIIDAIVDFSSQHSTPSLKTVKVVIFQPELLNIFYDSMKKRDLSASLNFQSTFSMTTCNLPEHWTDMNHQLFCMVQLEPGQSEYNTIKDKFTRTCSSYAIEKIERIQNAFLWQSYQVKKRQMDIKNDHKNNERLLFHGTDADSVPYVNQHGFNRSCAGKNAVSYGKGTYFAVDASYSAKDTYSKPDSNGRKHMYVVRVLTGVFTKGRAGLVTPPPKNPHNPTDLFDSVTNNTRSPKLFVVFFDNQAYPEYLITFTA

PARP3 = PARP3 (Homo sapiens, UniProt Q9Y6F1); settings: read-out: PARP3 IC50
Description: (§1) Inhibition experiments were performed using a homogenous assay measuring NAD+ consumption.[80]−[82] Reactions were carried out in quadruplicate, and IC50 curves were fitted using sigmoidal dose response curve (four variables) in GraphPad Prism version 8.02. […] Assay conditions for PARP2, TNKS2, PARP10, and PARP15 (Tables 1–3) were recently reported.[44] The conditions for the proximity-enhanced mono-ART assays (Table 4) were also reported recently.[47] PARP6 (400 nM) inhibition was measured using the standard buffer (50 mM sodium phosphate pH 7.0) for the enhanced activity assay using 500 nM NAD^+ and 18 h incubation in r.t..

PARP4 = PARP4 (Homo sapiens, UniProt Q9UKK3); settings: read-out: PARP4 IC50
Description: as §1

PARP10 [3] = molecular target: T1, PARP10; settings: proximity-enhanced assay
Description: (§2) We therefore had to improve the assay method and developed a homogeneous proximity enhanced assay for mono-ARTs.[47]
(§3) The proteins used in Tables 1–3 were produced as described earlier. Dockerin constructs to allow enhanced activity assays for mono-ARTs (Table 4) were produced in Escherichia coli with an N-terminal maltose binding protein (MBP) and a C-terminal dockerin domain from Hungateiclostridium thermocellum Cel48s as described recently.[47]
as §1

PARP11 = PARP11 (Homo sapiens, UniProt Q9NR21); settings: proximity-enhanced assay
Description: as §2, §3, §1

PARP14 = PARP14 (Homo sapiens, UniProt Q460N5); settings: proximity-enhanced assay
Description: as §2, §3, §1

PARP15 [4] = molecular target: T2, PARP15; settings: proximity-enhanced assay
Description: as §2, §3, §1

PARP7 = PARP7 (Homo sapiens, UniProt Q7Z3E1); settings: read-out: PARP7 IC50; proximity-enhanced assay; ≫ no inhibition at the concentration
Description: as §2, §3, §1

PARP12 = molecular target: T3, PARP12 (Homo sapiens, UniProt Q9H0J9); type: biochemical; settings: proximity-enhanced assay; > less than 50% inhibition
T3 construct: dockerin domain of Hungateiclostridium thermocellum Cel48s (C); made in house; host or cells: Escherichia coli
T3 sequence (Q9H0J9 1-701): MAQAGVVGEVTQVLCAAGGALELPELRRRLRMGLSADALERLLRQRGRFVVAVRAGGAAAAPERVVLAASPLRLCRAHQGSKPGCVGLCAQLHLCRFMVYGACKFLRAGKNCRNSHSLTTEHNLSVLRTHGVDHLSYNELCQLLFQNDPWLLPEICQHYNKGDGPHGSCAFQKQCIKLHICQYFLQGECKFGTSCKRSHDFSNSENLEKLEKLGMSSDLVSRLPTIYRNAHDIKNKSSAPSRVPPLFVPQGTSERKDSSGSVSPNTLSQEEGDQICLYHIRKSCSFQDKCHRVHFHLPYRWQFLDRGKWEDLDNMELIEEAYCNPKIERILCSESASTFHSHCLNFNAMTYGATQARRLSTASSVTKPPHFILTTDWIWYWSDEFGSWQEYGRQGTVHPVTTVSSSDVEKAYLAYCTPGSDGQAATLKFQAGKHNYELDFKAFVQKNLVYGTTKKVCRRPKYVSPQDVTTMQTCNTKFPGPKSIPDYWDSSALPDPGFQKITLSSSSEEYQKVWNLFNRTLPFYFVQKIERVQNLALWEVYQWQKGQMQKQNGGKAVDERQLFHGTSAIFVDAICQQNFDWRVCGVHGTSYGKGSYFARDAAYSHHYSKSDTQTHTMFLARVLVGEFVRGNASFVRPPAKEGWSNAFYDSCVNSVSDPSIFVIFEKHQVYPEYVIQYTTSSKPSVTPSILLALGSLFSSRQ
Description: as §2, §3, §1

PARP2 = molecular target: T4, PARP2 (Homo sapiens, UniProt Q9UGN5); type: biochemical; settings: > = less than 50% inhibition at highest concentration; ≫ = no inhibition
T4 construct: made in house

[5] = standard assay (Tables 1-3), * value limited by the protein concentration used, > less than 50% inhibition, ≫ no inhibition at the concentration, read-out: PARP10 IC50
[6] = standard assay (Tables 1-3), * value limited by the protein concentration used, > less than 50% inhibition, ≫ no inhibition at the concentration, read-out: PARP15 IC50

Row | Structure (SMILES) | IC50 (PARP10 [1]; [5]) | IC50 (PARP15 [2]; [6]) | PARP10 pIC50 ± SEM (PARP10 [1]; standard assay (Tables 1-3)) | PARP15 pIC50 ± SEM (PARP15 [2]; standard assay (Tables 1-3)) | other results
1 | Cc1ccc2c(c1)sc1nncn12 [Compound 1] | 3.2 µM | 3.2 µM | – | – | –
2 | Cc1ccc2sc3nncn3c2c1 [Compound 3, 6-Methyl[1,2,4]triazolo[3,4-b][1,3]benzothiazole] | 10 µM | 6.6 µM | – | – | –
3 | Cc1cccc2c1sc1nncn12 [Compound 4, 8-Methyl[1,2,4]triazolo[3,4-b][1,3]benzothiazole] | 3.4 µM | 7.1 µM | – | – | –
4 | CCc1ccc2c(c1)sc1nncn12 [Compound 5, 7-Ethyl[1,2,4]triazolo[3,4-b][1,3]benzothiazole] | 4.9 µM | 2 µM | 5.31 ± 0.10 | 5.70 ± 0.04 | –
5 | CC(C)c1ccc2c(c1)sc1nncn12 [Compound 6, 7-Isopropyl[1,2,4]triazolo[3,4-b][1,3]benzothiazole] | 5.5 µM | 3.9 µM | 5.26 ± 0.08 | 5.41 ± 0.13 | –
6 | Clc1ccc2c(c1)sc1nncn12 [Compound 7] | – | 7 µM | – | – | –
7 | Cc1cc(C)c2c(c1)sc1nncn12 [Compound 8] | 1.7 µM | 0.78 µM | – | 6.11 ± 0.10 | –
8 | Cc1ccc(F)c2c1sc1nncn12 [Compound 9, 5-Fluoro-8-methyl[1,2,4]triazolo[3,4-b][1,3]benzothiazole] | 5 µM | 6.9 µM | – | – | –
9 | COc1ccc2sc3nncn3c2c1 [Compound 10, 6-Methoxy[1,2,4]triazolo[3,4-b][1,3]benzothiazole] | 1.8 µM | 7.1 µM | – | – | –
10 | COc1ccc2c(c1)sc1nncn12 [Compound 11] | 6.5 µM | 4 µM | – | – | –
11 | COc1cccc2c1sc1nncn12 [Compound 12, 8-Methoxy[1,2,4]triazolo[3,4-b][1,3]benzothiazole] | 1.9 µM | 1.2 µM | 5.71 ± 0.04 | 5.93 ± 0.16 | –
12 | COc1cccc2sc3nncn3c12 [Compound 13, 5-Methoxy[1,2,4]triazolo[3,4-b][1,3]benzothiazole] | 5.1 µM | – | 5.30 ± 0.15 | – | –
13 | COc1ccc(OC)c2c1sc1nncn12 [Compound 14, 5,8-Dimethoxy[1,2,4]triazolo[3,4-b][1,3]benzothiazole] | 0.49 µM | 1.6 µM | 6.31 ± 0.22 | – | –
14 | COc1cc(OC)c2sc3nncn3c2c1 [Compound 15, 6,8-Dimethoxy[1,2,4]triazolo[3,4-b][1,3]benzothiazole] | 1.1 µM | 1.6 µM | – | – | –
15 | Oc1cccc2c1sc1nncn12 [Compound 17, [1,2,4]Triazolo[3,4-b][1,3]benzothiazol-8-ol] | – | 4.7 µM | – | 5.33 ± 0.11 | –
16 | Oc1ccc(O)c2c1sc1nncn12 [Compound 18, [1,2,4]Triazolo[3,4-b][1,3]benzothiazol-5,8-diol] | 0.32 µM | 0.29 µM | 6.50 ± 0.04 | 6.54 ± 0.05 | –
17 | Cc1ccc2c(c1)sc1nnc(O)n12 [Compound 19] | 5.4 µM | – | 5.27 ± 0.13 | – | –
18 | Cc1ccc2c(c1)sc1nnc(N)n12 [Compound 21, 7-Methyl[1,2,4]triazolo[3,4-b][1,3]benzothiazol-3-amine] | 0.18 µM | 0.3 µM | 6.73 ± 0.12 | 6.53 ± 0.14 | IC50 (PARP3): 34 µM; IC50 (PARP4): 10 µM; PARP10 pIC50 ± SEM (PARP10 [3]; n = 3): 7.60 ± 0.03; IC50 (PARP10 [3]; read-out: PARP10 IC50): 0.025 µM; PARP11 pIC50 ± SEM (PARP11; n = 3): 6.33 ± 0.13; IC50 (PARP11; read-out: PARP11 IC50): 0.47 µM; PARP14 pIC50 ± SEM (PARP14; n = 3): 6.19 ± 0.03; IC50 (PARP14; read-out: PARP14 IC50): 0.65 µM; PARP15 pIC50 ± SEM (PARP15 [4]; n = 3): 6.59 ± 0.11; IC50 (PARP15 [4]; read-out: PARP15 IC50): 0.26 µM; IC50 (PARP7): 3.8 µM; IC50 (PARP12): 4.4 µM
19 | CSc1nnc2sc3cc(C)ccc3n12 [Compound 22, 7-Methyl-3-(methylthio)[1,2,4]triazolo[3,4-b][1,3]benzothiazole] | 3.7 µM | – | 5.45 ± 0.54 | – | –
20 | COc1ccc(OC)c2c1sc1nnc(SC)n12 [Compound 28] | – | – | – | – | IC50 (PARP2): 8.4 µM
21 | COc1ccc(OC)c2c1sc1nnc(NC(=O)C(C)(C)C)n12 [Compound 30, N-(5,8-Dimethoxy[1,2,4]triazolo[3,4-b][1,3]benzothiazol-3-yl)-2,2-dimethylpropanamide] | – | – | – | – | IC50 (PARP10 [1]): > 10 µM; IC50 (PARP15 [2]): > 10 µM
22 | COc1ccc(OC)c2c1sc1nnc(NC(C)=O)n12 [Compound 31, N-(5,8-Dimethoxy[1,2,4]triazolo[3,4-b][1,3]benzothiazol-3-yl)acetamide] | – | – | – | – | IC50 (PARP10 [1]): > 10 µM; IC50 (PARP15 [2]): > 10 µM
